In US20220183937A1, “METHOD FOR IMPROVING THE PERFORMANCE OF A FRAGRANCE OR A FRAGRANCE MIXTURE” (SYMRISE AG, priority 2019, published 2022):

Assay: Boiling point of fragrance raw materials

HEXENYL ACETATE CIS TRANS-3
Boiling Point (Example 1, fragrances for long lasting performance, head range 1.00 a 230.0): 176.6 °C

PARMANYL®
Boiling Point (Example 2, fragrances for thermo boost performance, head range 230.1 a 300.0): 249.6 °C
